This passage reports Cyclase GLP-1 Receptor EC50 results from US20120046222A1.

This experiment addresses GLP-1 receptor (UniProt P32301). In words: cell-based or functional assay.
The substance “Ala^2,Pro^3,Ala^4-exendin-4 (from UniProt P26349) (peptide)” registered a Cyclase GLP-1 Receptor EC50 of 1.03 nM.

“Ala^2,Pro^3-exendin-4 (from UniProt P26349) (peptide)” had a Cyclase GLP-1 Receptor EC50 of 0.007 nM.

Consider “NMeAla^2,Pro^3-exendin-4 (from UniProt P26349) (peptide)”, for which the Cyclase GLP-1 Receptor EC50 amounted to 0.065 nM.

“Pro^3,Ala^4-exendin-4 (from UniProt P26349) (peptide)” yielded a Cyclase GLP-1 Receptor EC50 of 0.022 nM.

Substance “Pro^3,dAla^4-exendin-4 (from UniProt P26349) (peptide)” came in with a Cyclase GLP-1 Receptor EC50 of 0.06 nM.

On to “Val^2,Pro^3-exendin-4 (from UniProt P26349) (peptide)”, for which the Cyclase GLP-1 Receptor EC50 turned out to be 1.09 nM.

With “exendin-4 amide (from UniProt P26349) (peptide)”, the Cyclase GLP-1 Receptor EC50 was 0.01 nM.
